Test system: NQO1
Assay: Induction of NQO1 (QR) activity in Hepa1c1c7 cells
Settings: concentration for a 2-fold increase in NQO1 activity vs untreated Hepa1c1c7 cells; 48 h; mean and SD, n = 3

SMILES | QR Induction of Hepa1c1c cells CD
O=c1cc(-c2ccccc2)oc2ccc3ccccc3c12 [BNF, β-naphthoflavone, reference compound] | 0.028 (±0.003) μM
COc1cccc(/C=C2/C(=O)Nc3cc(F)ccc32)c1 [Compound 39, (E)-6-Fluoro-3-(3-methoxybenzylidene)indolin-2-one] | 0.17 ± 0.05 µM
COc1cccc(/C=C2/C(=O)Nc3ccc(Cl)cc32)c1 [Compound 40, (E)-5-Chloro-3-(3-methoxybenzylidene)indolin-2-one] | 0.36 ± 0.06 µM
COc1cccc(/C=C2/C(=O)Nc3cc(Cl)ccc32)c1 [Compound 41, (E)-6-Chloro-3-(3-methoxybenzylidene)indolin-2-one] | 0.039 ± 0.01 µM
COc1cccc(/C=C2/C(=O)Nc3cc(OC)ccc32)c1 [Compound 42, (E)-6-Methoxy-3-(3-methoxybenzylidene)indolin-2-one] | 0.13 ± 0.05 µM
COc1ccc(/C=C2/C(=O)Nc3cc(F)ccc32)cc1O [Compound 43, (E)-6-Fluoro-3-(3-hydroxy-4-methoxybenzylidene)indolin-2-one] | 0.11 ± 0.05 µM
COc1ccc(/C=C2/C(=O)Nc3cc(Cl)ccc32)cc1O [Compound 44, (E)-6-Chloro-3-(3-hydroxy-4-methoxybenzylidene)indolin-2-one] | 0.076 ± 0.01 µM
COc1ccc2c(c1)NC(=O)/C2=C/c1ccc(OC)c(O)c1 [Compound 45, (E)-3-(3-Hydroxy-4-methoxybenzylidene)-6-methoxyindolin-2-one] | 0.24 ± 0.08 µM
O=C1Nc2cc(F)ccc2/C1=C\c1cccc(C(F)(F)F)c1 [Compound 46, (E)-6-Fluoro-3-(3-(trifluoromethyl)benzylidene)indolin-2-one] | 0.016 ± 0.007 µM
O=C1Nc2cc(Cl)ccc2/C1=C\c1cccc(C(F)(F)F)c1 [Compound 47, (E)-6-Chloro-3-(3-(trifluoromethyl)benzylidene)indolin-2-one] | 0.0041 ± 0.0009 µM
COc1ccc2c(c1)NC(=O)/C2=C/c1cccc(C(F)(F)F)c1 [Compound 48, (E)-6-Methoxy-3-(3-(trifluoromethyl)benzylidene)indolin-2-one] | 0.085 ± 0.014 µM
C[S+]([O-])CCCCN=C=S (stereo not drawn) [sulforaphane, reference compound] | 0.26 (±0.04) μM

— patent US20110269812A1, “NOVEL BENZYLIDENE-INDOLINONE AND THEIR MEDICAL AND DIAGNOSTIC USES” (Agency for Science, Technology and Research, priority 2008, published 2011)
